Source: PubChem BioAssay (NCI)
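Grown in 96-well plates, cells were treated for 48 hours with each compound at five concentrations. Insufficient inhibition: endpoint recorded as highest concentration tested. TGI is the concentration that stops growth completely.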

Key:
Assay in all cases: growth of human tumour cells (NCI), 48 h
[1] = system: SF-539 CNS
[2] = system: HL-60(TB) leukemia
[3] = system: NCI-H226 lung
[4] = system: SNB-19 CNS
[5] = system: NCI-H522 lung
[6] = system: DU-145 prostate
[7] = system: CAKI-1 renal
[8] = system: HOP-92 NSCLC
[9] = system: RXF 393 renal
[10] = system: TK-10 renal
[11] = system: A498 renal
[12] = system: HCT-15 colon
[13] = system: CCRF-CEM leukemia
[14] = system: LOX IMVI melanoma
[15] = system: OVCAR-8 ovarian
[16] = system: LXFL 529 NSCLC
[17] = system: SN12C renal
[18] = system: M19-MEL melanoma
[19] = system: HCT-116 colon
[20] = system: OVCAR-4 ovarian
[21] = system: K-562 leukemia
[22] = system: T-47D breast
[23] = system: MDA-N
[24] = system: MDA-MB-435
[25] = system: MCF7 breast
[26] = system: U251 CNS
[27] = system: SK-MEL-2 melanoma
[28] = system: PC-3 prostate
[29] = system: SK-OV-3 ovarian
[30] = system: UACC-62 melanoma
[31] = system: RPMI-8226 leukemia
[32] = system: IGROV1 ovarian
[33] = system: HT29 colon
[34] = system: SF-268 CNS
[35] = system: HOP-62 NSCLC
[36] = system: ACHN renal
[37] = system: OVCAR-3 ovarian
[38] = system: UO-31 renal
[39] = system: BT-549 breast
[40] = system: DLD-1 colon
[41] = system: HOP-18 NSCLC
[42] = system: HCC-2998 colon
[43] = system: SW-620 colon
[44] = system: COLO 205 colon
[45] = system: SK-MEL-28 melanoma
[46] = system: SK-MEL-5 melanoma
[47] = system: MDA-MB-231 breast
[48] = system: DMS 273 small cell lung
[49] = system: MALME-3M melanoma
[50] = system: NCI-H23 lung
[51] = system: UACC-257 melanoma
[52] = system: SF-295 CNS
[53] = system: NCI-H322M lung
[54] = system: MOLT-4 leukemia
[55] = system: SR leukemia
[56] = system: M14 melanoma
[57] = system: KM20L2 colon
[58] = system: SNB-75 CNS
[59] = system: SNB-78 CNS
[60] = system: NCI-H460 lung
[61] = system: KM12 colon
[62] = system: 786-0 renal
[63] = system: A549 NSCLC
[64] = system: EKVX NSCLC
[65] = system: OVCAR-5 ovarian
[66] = system: HS 578T breast

`CC1CC[P+](c2ccccc2)(c2ccccc2)c2c1ccc1ccccc21` (stereo unspecified) showed a TGI [1] of 30.6 µM, a TGI [2] of 24.8 µM and a TGI [3] of 37.4 µM. The TGI [4] was 28.2 µM, the TGI [5] was 11.7 µM and the TGI [6] was 61.2 µM. It also gave a TGI [7] of 22.3 µM, a TGI [8] of 4.77 µM and a TGI [9] of 36.4 µM. It also gave a TGI [10] of 55 µM, a TGI [11] of 29.7 µM and a TGI [12] of 94.2 µM. For the same compound, the TGI [13] was over 100 µM, the TGI [14] was 13.6 µM and the TGI [15] was 9.1 µM. It also gave a TGI [16] of 13.9 µM, a TGI [17] of 13.8 µM and a TGI [18] of 16.4 µM. It also gave a TGI [19] of 10.6 µM, a TGI [20] of 56.9 µM and a TGI [21] of over 100 µM. For the same compound, the TGI [22] was 35.3 µM, the TGI [23] was 8.25 µM and the TGI [24] was 12.1 µM. The TGI [25] was 17.2 µM, the TGI [26] was 9.66 µM and the TGI [27] was 7.27 µM. It also gave a TGI [28] of 6.68 µM, a TGI [29] of 32.7 µM and a TGI [30] of 14.9 µM. For the same compound, the TGI [31] was 37 µM, the TGI [32] was 19.7 µM and the TGI [33] was 12.5 µM. It also gave a TGI [34] of 28.9 µM, a TGI [35] of 21.1 µM and a TGI [36] of 45.3 µM. For the same compound, the TGI [37] was 40.6 µM, the TGI [38] was 49.5 µM and the TGI [39] was 7.08 µM. For the same compound, the TGI [40] was 95.1 µM, the TGI [41] was 10.8 µM and the TGI [42] was 29.8 µM. The TGI [43] was 21.9 µM, the TGI [44] was 2.27 µM and the TGI [45] was 17.4 µM. For the same compound, the TGI [46] was 10.7 µM, the TGI [47] was 27.9 µM and the TGI [48] was 3.08 µM. For the same compound, the TGI [49] was 20.5 µM, the TGI [50] was 6.62 µM and the TGI [51] was 5.15 µM. The TGI [52] was 21.6 µM, the TGI [53] was 58.1 µM and the TGI [54] was 76.6 µM. The TGI [55] was 32.6 µM, the TGI [56] was 16.7 µM and the TGI [57] was 13.5 µM. It also gave a TGI [58] of 8.03 µM, a TGI [59] of 14.6 µM and a TGI [60] of 12.8 µM. For the same compound, the TGI [61] was 13.3 µM, the TGI [62] was 86.6 µM and the TGI [63] was 61.4 µM. For the same compound, the TGI [64] was 98.4 µM, the TGI [65] was 43.5 µM and the TGI [66] was 8.35 µM.
